# Measured affinities in a library of Ab-14 light chain variants

Target peptide (SARS-CoV-2 spike, HR2 region): PDVDLGDISGINAS

Parent scFv Ab-14: VH joined to VL by the linker GGGGSGGGGSGGGGS. Changes lie in the light chain CDRs alone.
VH: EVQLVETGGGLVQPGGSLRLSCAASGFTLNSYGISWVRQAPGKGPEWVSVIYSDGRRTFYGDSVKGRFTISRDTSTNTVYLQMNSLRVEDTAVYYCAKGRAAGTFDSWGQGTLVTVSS
VL: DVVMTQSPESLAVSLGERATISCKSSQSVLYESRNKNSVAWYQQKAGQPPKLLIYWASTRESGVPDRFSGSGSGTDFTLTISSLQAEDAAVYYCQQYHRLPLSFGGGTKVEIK

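The variants were designed computationally from a first round of random CDR variants and then made and measured. Their group label is 14L_En_Gen (En: ensemble of fine-tuned language models; Gen: genetic algorithm). AlphaSeq pools MATa yeast showing the antibodies with MATalpha yeast showing the peptide. After mating in shaken culture at 30 °C for 16 h, diploids were selected and their barcode pairs sequenced. A regression on co-assayed BCL2-family reference pairs converts the normalised counts of each replicate to an apparent Kd. Each pool was mated in six replicate cultures.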

The parent's light chain CDRs are KSSQSVLYESRNKNSVA, WASTRES, QQYHRLPLS; each variant's own CDRs replace them letter for letter. Affinities are written as log10 Kd with Kd in nM; a lower number is a better binder. "nd" means that the variant was in the library but no mating with the target was seen in that replicate; the authors take this as a sign of poor binding, and no number exists.

| CDR-L1 | CDR-L2 | CDR-L3 | replicates, log10 nM | control signals |
|---|---|---|---|---|
| KLTMITGLEKVSKNNVA | EMETRER | QQYNRLPLS | 0.73 0.38 0.64 0.22 0.46 0.57 | 1 of 18 (3.16) |
| IVSQLMLWGYHAKNSIA | EAEMRIN | QQYDRLPLF | nd nd nd nd nd nd | 0 of 18 |
| HMSALTLMGSRQRNSVA | QMTTREN | QQYDRLPLA | -0.07 0.23 0.18 0.17 0.49 0.42 | 2 of 18 (1.30) |
| HMSALTLQGMRARNSVA | QMTTREN | QQYDRLPLA | 3.29 1.27 0.83 1.05 1.06 1.18 | 0 of 18 |
| MISNVMNTLTRVGNNVA | DLSERED | QQYFRLPLS | 1.77 1.06 1.63 1.30 1.65 1.61 | 2 of 18 (2.60) |
| TLYGLSNSMSINKNSVA | EMTTREK | QQYDRLPLM | 1.20 1.09 1.61 3.11 1.75 1.40 | 0 of 18 |
| KLSMYTGHMSVSKNNVA | EMETRMN | QQYDRLPLS | 0.97 0.52 0.80 1.29 0.91 0.55 | 1 of 18 (1.82) |
| KITATMRFEQKNTNNIA | EVSMRTK | QQYVRLPLA | -0.55 -0.35 -0.31 -0.80 -0.03 0.25 | 0 of 18 |
| TISQVMNTLTRHGNNVA | DLQEREE | QQYTRLPLS | nd 2.16 nd nd nd nd | 0 of 18 |
| TISQMTSLFSQSINNVA | EVSMREP | QQYDRLPLI | 0.74 0.82 0.98 0.86 1.05 1.17 | 0 of 18 |
| MVTQMAMTGMGNKRSVA | NAETREY | QQYHRLPLI | 0.62 0.80 0.70 0.91 0.82 0.62 | 1 of 18 (3.19) |
| KLSGLMASSKFAKQNVA | ENNTREK | QQYDRLPLS | nd nd 3.28 2.48 nd 2.30 | 3 of 18 (2.61) |
| MLSQMWGVGSKVSNSVA | QASMRFN | QQYDRLPLI | 1.23 1.22 1.85 1.41 2.19 1.33 | 0 of 18 |
| TISQMTSLFEQSINNVA | EVTTREN | QQYDRLPLA | nd nd nd nd nd nd | 0 of 18 |
| MISQLMNLGQFAINSVA | QASIRTE | QQYDRLPLA | nd 2.78 1.66 1.34 2.50 1.78 | 2 of 18 (2.25) |
| MVNGIMDHLSKQTNNVA | ETVTRET | QQYDRLPLS | 0.14 -0.11 0.01 -0.50 -0.33 -0.18 | 1 of 18 (2.50) |
| MISQLMNMGTFAINSVA | QASIRNE | QQYDRLPLT | 2.32 1.69 1.29 2.59 1.37 2.15 | 3 of 18 (2.05) |
| MISQIYNMGQFAINSVA | QASVRNV | QQYDRLPLM | nd nd 1.45 1.92 1.94 1.48 | 0 of 18 |
| HITMGMYVMGRHNSSIA | QAEERAK | QQYDRLPLI | 2.17 1.51 1.23 1.74 1.87 2.38 | 2 of 18 (2.24) |
| KIGMTLNTLLHQKNNVA | DLVEREN | QQYYRLPLS | 1.80 1.63 2.43 1.05 0.65 0.35 | 0 of 18 |
| KLSMTHGMELINRNSVA | ELVTRMS | QQYNRLPLS | 1.21 0.82 0.73 0.92 0.91 0.84 | 1 of 18 (1.95) |
| MISQLYNMGQFAINSVA | QASLRNE | QQYDRLPLI | 2.23 1.74 2.00 2.09 2.30 1.43 | 0 of 18 |
| KFSQMSNSMSVSKSAVA | EMSTRPE | QQYNRLPLA | -0.19 -0.19 -0.10 -0.03 -0.22 -0.21 | 0 of 18 |
| QISGITGHQSMSKNNVA | EMVTRVN | QQYDRLPLS | 0.60 0.47 0.35 0.10 0.38 0.55 | 3 of 18 (3.18) |
| TISQMTSLFSQSINNVA | EVSMRES | QQYDRLPLI | 0.48 0.75 0.80 0.62 0.77 0.58 | 3 of 18 (2.52) |
| TIGGTLMYGMRNRSNVA | EVSERLN | QQYDRLPLH | 2.38 3.29 3.19 3.34 nd nd | 0 of 18 |
| TLYGLTNSMSKSKDNVA | EMSTREA | QQYDRLPLA | 0.98 0.78 0.74 0.69 0.62 0.77 | 0 of 18 |
| HIGGVLMGENVKARSVA | HMNTRED | QQYDRLPLS | 0.58 0.67 0.66 0.65 0.41 0.79 | 1 of 18 (3.09) |
| IVSQLMLWGHSAKNSIA | EAVTRYN | QQYDRLPLF | 0.12 0.65 0.23 0.20 0.29 0.71 | 2 of 18 (1.36) |
| MISQLYNMGTFAINSVA | QASIRNE | QQYDRLPLI | nd nd nd nd 2.21 nd | 0 of 18 |
| KLTMISGLEKVSTNNVA | EMETREE | QQYNRLPLS | 0.60 0.11 0.39 0.68 0.60 0.82 | 0 of 18 |
| HMSMLTLGGLKERNSVA | QMTTREN | QQYDRLPLA | 1.61 0.86 1.01 1.04 1.28 1.19 | 0 of 18 |
| KISQMVRVGSTHKNSIA | EEATRAK | QQYHRLPLA | 1.67 1.59 0.94 0.95 0.78 1.48 | 0 of 18 |
| MISQLYNMGSFAINSVA | QASERNE | QQYDRLPLM | 1.18 1.08 1.17 1.26 1.17 1.04 | 1 of 18 (2.10) |
| TLYGLSNSMSKNKNSVA | EMTTREK | QQYDRLPLF | 2.03 1.78 1.65 1.36 2.16 1.92 | 1 of 18 (1.83) |
| TISQITTLFSQTTNNVA | EVSTREK | QQYDRLPLS | 0.80 0.46 0.68 0.54 0.77 0.53 | 2 of 18 (2.54) |
| MISNVMNTLTRQGNNVA | DLAEREK | QQYFRLPLS | 2.16 0.84 1.32 0.81 1.03 1.42 | 0 of 18 |
| SISGFMKSLSAHMNSVA | DMTNRED | QQYDRLPLS | 1.66 1.36 1.35 1.14 1.17 1.33 | 1 of 18 (3.57) |
| KFSQMVNTMSVSHSAVA | EMSTRPE | QQYNRLPLS | 0.74 0.22 0.32 0.57 0.66 0.30 | 0 of 18 |
| TISQITSLFSQTINNVA | EVSTREQ | QQYDRLPLA | 0.49 nd 0.56 1.14 2.24 0.33 | 0 of 18 |
| TISQMTSLFSQNINNVA | EVSTREN | QQYDRLPLA | 0.34 0.42 0.05 0.26 0.51 0.47 | 1 of 18 (2.46) |
| HMSALTLQGMRLRNSVA | QMTTREN | QQYDRLPLA | 0.92 0.86 0.85 1.06 0.96 1.62 | 1 of 18 (3.56) |
| MISQLYNMGQFAINSVA | QASERNA | QQYDRLPLM | 2.05 2.26 1.09 1.83 1.28 1.48 | 1 of 18 (3.30) |

A selection of 3 entries from above:

| CDR-L1 | CDR-L2 | CDR-L3 | replicates, log10 nM | control signals |
|---|---|---|---|---|
| TISQITSLFSQTINNVA | EVSTREQ | QQYDRLPLA | 0.49 nd 0.56 1.14 2.24 0.33 | 0 of 18 |
| TISQITTLFSQTTNNVA | EVSTREK | QQYDRLPLS | 0.80 0.46 0.68 0.54 0.77 0.53 | 2 of 18 (2.54) |
| KIGMTLNTLLHQKNNVA | DLVEREN | QQYYRLPLS | 1.80 1.63 2.43 1.05 0.65 0.35 | 0 of 18 |

The range of this assay differs from that of the first round, and the authors advise against merging the two. In the paper, a design with two or fewer of six values counts as a poor binder. Empty control strains, which show no peptide, gave a signal in 4% of pairings with all light chain designs; the median was 2.64 and 95% of these signals were weaker than 1.59. No background was subtracted. Also given: how often the same scFv was detected with the empty control strains, with their mean in brackets.

Reference: Li et al. 2023, doi:10.1038/s41467-023-39022-2. File: FLAb, binding data.